Article PMC5660261, “Binding and Signaling Studies Disclose a Potential Allosteric Site for Cannabidiol in Cannabinoid CB2 Receptors” (Frontiers in Pharmacology, 2017)

Protein sequences, listed by entry. Tags and fused reporters are not part of them.
UniProt P34972, whole entry: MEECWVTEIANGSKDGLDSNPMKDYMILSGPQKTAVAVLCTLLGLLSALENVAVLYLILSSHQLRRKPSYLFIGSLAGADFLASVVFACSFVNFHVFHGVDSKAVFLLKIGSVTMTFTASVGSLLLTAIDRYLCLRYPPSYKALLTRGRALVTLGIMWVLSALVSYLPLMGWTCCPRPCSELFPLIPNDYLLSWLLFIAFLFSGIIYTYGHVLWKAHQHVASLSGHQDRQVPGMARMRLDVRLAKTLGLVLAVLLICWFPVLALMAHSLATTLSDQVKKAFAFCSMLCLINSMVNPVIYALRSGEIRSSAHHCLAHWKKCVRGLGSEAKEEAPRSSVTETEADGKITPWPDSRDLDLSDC

Target: T1, human CB2R (Homo sapiens, UniProt P34972)
T1 construct: host or cells: HEK-293T, transient transfection, living cells
Assay: [3H]-WIN 55,212-2 saturation radioligand binding on CHO-CB2R membranes
Conditions: saturation/Scatchard, membranes from CHO cells stably expressing human CB2R

**Q.** With Cc1c(C(=O)c2cccc3ccccc23)c2cccc3c2n1[C@H](CN1CCOCC1)CO3 [WIN 55,212-2, (R)-(+)-[2,3-dihydro-5-methyl-3-(4-morpholinylmethyl)pyrrolo[1,2,3-de]-1,4-benzoxazin-6-yl]-1-naphthalenylmethanone] as the compound, how does the Bmax read?
**A.** Its Bmax is 8300 ± 200 fmol/mg protein.
